The values that follow are results of earlier work, collected in article PMC3953390.

In this data set the target is MLCK (UniProt Q15746).

For calmodulin (from UniProt P0DP23), the Kd was 1.1 nM.
